Molecular target: T1, hERG potassium channel (Homo sapiens, UniProt Q12809)
T1 construct: host or cells: HEK-293
Experiment: Binding affinity of compounds for hERG receptor ([H3]-Astemizole displacement, HEK-293 membrane lysates)
Settings: % inhibition of specific binding of 1.5 nM [H3]-Astemizole at 0.2 μM test material
Description: Membrane lysates were obtained from mammalian HEK-293 cells expressing the hERG potassium channel and used in binding assay experiments. […] After incubation was completed, the radioactivity bound to the hERG K+ channel was counted. The affinity of each test material for the hERG K+ channel was calculated from % inhibition of specific binding of the radioligand to the hERG K+ channel, resulting from the action of the test material.

Chains of the proteins cited; added tags and fusions are not shown. Lines headed by an entry give the natural chain unless they say otherwise; changes in a name come on top.
UniProt Q12809: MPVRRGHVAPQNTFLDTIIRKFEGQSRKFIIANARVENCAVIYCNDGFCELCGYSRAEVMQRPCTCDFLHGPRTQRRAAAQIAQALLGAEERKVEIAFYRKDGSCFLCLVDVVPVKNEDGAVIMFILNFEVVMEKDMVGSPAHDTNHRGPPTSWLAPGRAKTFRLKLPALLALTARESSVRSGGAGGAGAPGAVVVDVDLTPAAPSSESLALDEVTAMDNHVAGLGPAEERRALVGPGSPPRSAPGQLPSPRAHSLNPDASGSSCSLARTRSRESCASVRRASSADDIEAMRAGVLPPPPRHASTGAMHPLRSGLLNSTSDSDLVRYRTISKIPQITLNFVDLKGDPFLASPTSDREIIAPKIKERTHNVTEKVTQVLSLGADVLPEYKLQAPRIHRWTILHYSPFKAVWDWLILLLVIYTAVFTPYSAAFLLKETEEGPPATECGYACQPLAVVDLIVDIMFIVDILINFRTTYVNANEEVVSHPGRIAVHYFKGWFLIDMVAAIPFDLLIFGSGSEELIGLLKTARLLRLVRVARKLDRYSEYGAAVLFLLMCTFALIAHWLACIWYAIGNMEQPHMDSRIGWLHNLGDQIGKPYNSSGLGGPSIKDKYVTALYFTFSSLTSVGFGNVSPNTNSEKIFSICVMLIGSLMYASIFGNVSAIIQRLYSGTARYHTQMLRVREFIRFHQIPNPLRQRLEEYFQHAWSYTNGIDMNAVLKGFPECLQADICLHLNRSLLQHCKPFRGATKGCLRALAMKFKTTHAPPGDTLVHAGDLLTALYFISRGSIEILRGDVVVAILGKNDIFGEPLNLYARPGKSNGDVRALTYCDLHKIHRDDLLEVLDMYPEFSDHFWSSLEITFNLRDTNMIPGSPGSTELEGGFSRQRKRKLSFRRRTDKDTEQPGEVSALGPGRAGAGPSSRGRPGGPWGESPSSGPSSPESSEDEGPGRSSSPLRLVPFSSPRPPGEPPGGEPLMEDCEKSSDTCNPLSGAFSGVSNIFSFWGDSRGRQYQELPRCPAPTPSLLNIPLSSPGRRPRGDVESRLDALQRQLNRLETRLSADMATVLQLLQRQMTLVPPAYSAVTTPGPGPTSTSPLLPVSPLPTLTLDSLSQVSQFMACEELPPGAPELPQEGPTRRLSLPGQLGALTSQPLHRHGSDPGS

## COc1cc(N)c(Cl)cc1C(=O)NC1CCN(CCCOc2ccc(F)cc2)CC1OC (centres unmarked) [Cisapride, cisapride, reference compound]
  hERG binding affinity (% at 0.2 μM): 58% at 0.2 μM
Listed as cisapride
  hERG binding affinity (% at 0.2 μM): 58%
